Laboratory results from US20120041012A1, “SUBSTITUTED SPIROCYCLIC AMINES USEFUL AS ANTIDIABETIC COMPOUNDS” (priority 2009, published 2012).

Chains of the proteins cited; added tags and fusions are not shown.
UniProt P35346, whole entry: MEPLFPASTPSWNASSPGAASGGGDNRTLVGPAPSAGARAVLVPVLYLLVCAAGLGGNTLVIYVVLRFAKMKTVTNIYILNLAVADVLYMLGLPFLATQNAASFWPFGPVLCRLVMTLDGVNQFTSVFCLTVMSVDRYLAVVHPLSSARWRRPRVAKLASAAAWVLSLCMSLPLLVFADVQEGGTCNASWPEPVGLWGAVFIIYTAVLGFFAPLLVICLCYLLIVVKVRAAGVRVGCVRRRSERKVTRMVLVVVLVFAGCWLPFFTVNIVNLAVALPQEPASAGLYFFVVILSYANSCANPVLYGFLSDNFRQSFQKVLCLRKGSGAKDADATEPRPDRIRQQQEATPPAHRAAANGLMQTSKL

Assays:
SSTR5 [1] = target: T1, SSTR5 (Homo sapiens, UniProt P35346); assay: Functional assay of SSTR5 mediated cyclic AMP production in SSTR5 expressing CHO cells; conditions: read-out: SSTR5 (cAMP) IC50; Table 2; FSK plus SS-28; tested form: TFA
SSTR5 [2] = target: T1, SSTR5; assay: SSTR5 receptor-ligand binding assay, CHO-K1 cell membranes, 125I-SRIF radioligand; conditions: read-out: SSTR5 Ki; Table 2; tested form: TFA

In the case of `CC(C)Oc1ccc(-c2ccc(F)c(F)c2F)c(CN2CCC3(CC2)CC(=O)N(c2ccc(C(=O)O)cc2)C3)c1`, the IC50 (SSTR5 [1]) is reported as 4.5 nM and the Ki (SSTR5 [2]) is reported as 4.2 nM.
